# Biological target: T1, Interstitial collagenase (Homo sapiens, UniProt P03956)
# T1 sequence (P03956 whole entry): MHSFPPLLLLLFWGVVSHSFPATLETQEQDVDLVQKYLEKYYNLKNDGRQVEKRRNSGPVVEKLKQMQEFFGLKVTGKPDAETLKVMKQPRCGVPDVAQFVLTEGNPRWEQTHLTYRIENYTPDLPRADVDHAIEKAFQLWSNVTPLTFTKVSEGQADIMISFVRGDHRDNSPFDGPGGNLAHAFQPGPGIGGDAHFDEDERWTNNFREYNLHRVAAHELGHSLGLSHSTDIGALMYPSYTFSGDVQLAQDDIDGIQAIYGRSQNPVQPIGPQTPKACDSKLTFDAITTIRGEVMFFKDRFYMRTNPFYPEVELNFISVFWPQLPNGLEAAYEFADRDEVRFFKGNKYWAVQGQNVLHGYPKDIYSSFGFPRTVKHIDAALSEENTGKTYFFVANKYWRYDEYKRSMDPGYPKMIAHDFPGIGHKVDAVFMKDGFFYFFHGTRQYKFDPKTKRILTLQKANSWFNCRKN
# Assay: Inhibitory concentration against MMP-1
row,Structure (SMILES),IC50 [nM]
1,Cc1cc(F)ccc1COc1ccc(S(=O)(=O)N2CCC[C@@](C)(O)[C@@H]2C(=O)NO)cc1,220
2,Cc1ccc(F)cc1COc1ccc(S(=O)(=O)N2CCC[C@@](C)(O)[C@@H]2C(=O)NO)cc1,600
3,C[C@@]1(O)CCCN(S(=O)(=O)c2ccc(OCc3ccccc3Cl)cc2)[C@H]1C(=O)NO,270

# Reference: ChEMBL document CHEMBL1139577, “Discovery of 3-OH-3-methylpipecolic hydroxamates: potent orally active inhibitors of aggrecanase and MMP-13” (Bioorg Med Chem Lett, 2005)
